# Cyclic peptide permeability, from CycPeptMPDB

Source: CycPeptMPDB (Li et al. 2023), which took these values from Kelly et al. 2021, doi:10.1021/jacs.0c06115.

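Conditions beyond the assay type are not listed; see the original paper. Other peptides of the study may be missing here. Peptides that the database sets to -10, its floor, are left out.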

PAMPA measures passive passage through an artificial lipid membrane. P is given in units of 10^-6 cm/s (from log10 values with two decimals); larger means faster passage.

compound,PAMPA (10^-6 cm/s)
CC(=O)N1CCC[C@H]1C(=O)N[C@@H]1C(=O)N(C)[C@H](CC(C)C)C(=O)N[C@H](CC(C)C)C(=O)N[C@@H](CC(C)C)C(=O)N(C)[C@H](CC(C)C)C(=O)N(C)[C@H](C)C(=O)N[C@@H](CC(C)C)C(=O)N2CCC[C@@H]2C(=O)O[C@@H]1C,1.3
CC(=O)N1CCC[C@H]1C(=O)N[C@@H]1C(=O)N[C@H](CC(C)C)C(=O)N[C@H](CC(C)C)C(=O)N[C@H](CC(C)C)C(=O)N[C@H](CC(C)C)C(=O)N[C@@H](C)C(=O)N[C@@H](CC(C)C)C(=O)N2CCC[C@@H]2C(=O)O[C@@H]1C,2.9
CC(=O)N1CCC[C@H]1C(=O)N(C)[C@@H](CC(C)C)C(=O)N[C@@H]1C(=O)N(C)[C@@H](CC(C)C)C(=O)N(C)[C@H](CC(C)C)C(=O)N(C)[C@@H](CC(C)C)C(=O)N(C)[C@@H](C)C(=O)N[C@H](CC(C)C)C(=O)N2CCC[C@H]2C(=O)O[C@@H]1C,6.2
CC(=O)N1CCC[C@H]1C(=O)N(C)[C@@H](CC(C)C)C(=O)N[C@@H]1C(=O)N(C)[C@@H](CC(C)C)C(=O)N[C@H](CC(C)C)C(=O)N(C)[C@H](CC(C)C)C(=O)N(C)[C@@H](C)C(=O)N[C@@H](CC(C)C)C(=O)N2CCC[C@@H]2C(=O)O[C@@H]1C,1.3
CC(=O)N1CCC[C@@H]1C(=O)N(C)[C@@H](CC(C)C)C(=O)N[C@@H]1C(=O)N(C)[C@@H](CC(C)C)C(=O)N[C@@H](CC(C)C)C(=O)N(C)[C@H](CC(C)C)C(=O)N(C)[C@@H](C)C(=O)N[C@H](CC(C)C)C(=O)N2CCC[C@H]2C(=O)O[C@@H]1C,0.78
CC(=O)N1CCC[C@@H]1C(=O)N(C)[C@H](CC(C)C)C(=O)N[C@@H]1C(=O)N(C)[C@@H](CC(C)C)C(=O)N(C)[C@H](CC(C)C)C(=O)N[C@@H](CC(C)C)C(=O)N(C)[C@H](C)C(=O)N[C@H](CC(C)C)C(=O)N2CCC[C@H]2C(=O)O[C@@H]1C,2.3
CC(=O)N1CCC[C@@H]1C(=O)N(C)[C@H](CC(C)C)C(=O)N[C@@H]1C(=O)N[C@@H](CC(C)C)C(=O)N[C@H](CC(C)C)C(=O)N(C)[C@H](CC(C)C)C(=O)N[C@@H](C)C(=O)N[C@@H](CC(C)C)C(=O)N2CCC[C@H]2C(=O)O[C@@H]1C,0.026
CC(=O)N1CCC[C@H]1C(=O)N(C)[C@@H](CC(C)C)C(=O)N[C@@H]1C(=O)N[C@H](CC(C)C)C(=O)N[C@@H](CC(C)C)C(=O)N[C@H](CC(C)C)C(=O)N(C)[C@H](C)C(=O)N[C@@H](CC(C)C)C(=O)N2CCC[C@H]2C(=O)O[C@@H]1C,3.2
CC(=O)N1CCC[C@@H]1C(=O)N(C)[C@H](CC(C)C)C(=O)N[C@@H]1C(=O)N[C@@H](CC(C)C)C(=O)N[C@@H](CC(C)C)C(=O)N[C@@H](CC(C)C)C(=O)N(C)[C@@H](C)C(=O)N[C@H](CC(C)C)C(=O)N2CCC[C@@H]2C(=O)O[C@@H]1C,0.22
CC(=O)N1CCC[C@H]1C(=O)N(C)[C@H](CC(C)C)C(=O)N[C@@H]1C(=O)N[C@@H](CC(C)C)C(=O)N[C@@H](CC(C)C)C(=O)N[C@H](CC(C)C)C(=O)N(C)[C@@H](C)C(=O)N[C@@H](CC(C)C)C(=O)N2CCC[C@H]2C(=O)O[C@@H]1C,7.2
CC(=O)N1CCC[C@H]1C(=O)N[C@@H]1C(=O)N[C@H](CC(C)C)C(=O)N(C)[C@H](CC(C)C)C(=O)N(C)[C@@H](CC(C)C)C(=O)N[C@H](CC(C)C)C(=O)N(C)[C@H](C)C(=O)N[C@@H](CC(C)C)C(=O)N2CCC[C@@H]2C(=O)O[C@@H]1C,10
CC(=O)N1CCC[C@H]1C(=O)N(C)[C@@H](CC(C)C)C(=O)N[C@@H]1C(=O)N[C@H](CC(C)C)C(=O)N[C@@H](CC(C)C)C(=O)N[C@@H](CC(C)C)C(=O)N(C)[C@@H](C)C(=O)N[C@@H](CC(C)C)C(=O)N2CCC[C@H]2C(=O)O[C@@H]1C,0.28
CC(=O)N1CCC[C@@H]1C(=O)N(C)[C@@H](CC(C)C)C(=O)N[C@@H]1C(=O)N[C@H](CC(C)C)C(=O)N[C@@H](CC(C)C)C(=O)N[C@@H](CC(C)C)C(=O)N[C@@H](C)C(=O)N[C@H](CC(C)C)C(=O)N2CCC[C@@H]2C(=O)O[C@@H]1C,3.1
CC(=O)N1CCC[C@H]1C(=O)N(C)[C@@H](CC(C)C)C(=O)N[C@@H]1C(=O)N[C@@H](CC(C)C)C(=O)N[C@@H](CC(C)C)C(=O)N[C@H](CC(C)C)C(=O)N[C@@H](C)C(=O)N[C@H](CC(C)C)C(=O)N2CCC[C@@H]2C(=O)O[C@@H]1C,0.002
CC(=O)N1CCC[C@@H]1C(=O)N(C)[C@@H](CC(C)C)C(=O)N[C@@H]1C(=O)N(C)[C@H](CC(C)C)C(=O)N(C)[C@@H](CC(C)C)C(=O)N(C)[C@H](CC(C)C)C(=O)N(C)[C@@H](C)C(=O)N[C@@H](CC(C)C)C(=O)N2CCC[C@@H]2C(=O)O[C@@H]1C,0.79
CC(=O)N1CCC[C@H]1C(=O)N(C)[C@H](CC(C)C)C(=O)N[C@@H]1C(=O)N(C)[C@H](CC(C)C)C(=O)N[C@H](CC(C)C)C(=O)N[C@@H](CC(C)C)C(=O)N(C)[C@@H](C)C(=O)N[C@@H](CC(C)C)C(=O)N2CCC[C@H]2C(=O)O[C@@H]1C,0.42

The last 2 entries again:

compound	PAMPA (10^-6 cm/s)
CC(=O)N1CCC[C@@H]1C(=O)N(C)[C@@H](CC(C)C)C(=O)N[C@@H]1C(=O)N(C)[C@H](CC(C)C)C(=O)N(C)[C@@H](CC(C)C)C(=O)N(C)[C@H](CC(C)C)C(=O)N(C)[C@@H](C)C(=O)N[C@@H](CC(C)C)C(=O)N2CCC[C@@H]2C(=O)O[C@@H]1C	0.79
CC(=O)N1CCC[C@H]1C(=O)N(C)[C@H](CC(C)C)C(=O)N[C@@H]1C(=O)N(C)[C@H](CC(C)C)C(=O)N[C@H](CC(C)C)C(=O)N[C@@H](CC(C)C)C(=O)N(C)[C@@H](C)C(=O)N[C@@H](CC(C)C)C(=O)N2CCC[C@H]2C(=O)O[C@@H]1C	0.42